{
  "sequences": {"note": "Chains of the proteins cited; added tags and fusions are not shown. Lines headed by an entry give the natural chain unless they say otherwise; changes in a name come on top.", "UniProt P29597": "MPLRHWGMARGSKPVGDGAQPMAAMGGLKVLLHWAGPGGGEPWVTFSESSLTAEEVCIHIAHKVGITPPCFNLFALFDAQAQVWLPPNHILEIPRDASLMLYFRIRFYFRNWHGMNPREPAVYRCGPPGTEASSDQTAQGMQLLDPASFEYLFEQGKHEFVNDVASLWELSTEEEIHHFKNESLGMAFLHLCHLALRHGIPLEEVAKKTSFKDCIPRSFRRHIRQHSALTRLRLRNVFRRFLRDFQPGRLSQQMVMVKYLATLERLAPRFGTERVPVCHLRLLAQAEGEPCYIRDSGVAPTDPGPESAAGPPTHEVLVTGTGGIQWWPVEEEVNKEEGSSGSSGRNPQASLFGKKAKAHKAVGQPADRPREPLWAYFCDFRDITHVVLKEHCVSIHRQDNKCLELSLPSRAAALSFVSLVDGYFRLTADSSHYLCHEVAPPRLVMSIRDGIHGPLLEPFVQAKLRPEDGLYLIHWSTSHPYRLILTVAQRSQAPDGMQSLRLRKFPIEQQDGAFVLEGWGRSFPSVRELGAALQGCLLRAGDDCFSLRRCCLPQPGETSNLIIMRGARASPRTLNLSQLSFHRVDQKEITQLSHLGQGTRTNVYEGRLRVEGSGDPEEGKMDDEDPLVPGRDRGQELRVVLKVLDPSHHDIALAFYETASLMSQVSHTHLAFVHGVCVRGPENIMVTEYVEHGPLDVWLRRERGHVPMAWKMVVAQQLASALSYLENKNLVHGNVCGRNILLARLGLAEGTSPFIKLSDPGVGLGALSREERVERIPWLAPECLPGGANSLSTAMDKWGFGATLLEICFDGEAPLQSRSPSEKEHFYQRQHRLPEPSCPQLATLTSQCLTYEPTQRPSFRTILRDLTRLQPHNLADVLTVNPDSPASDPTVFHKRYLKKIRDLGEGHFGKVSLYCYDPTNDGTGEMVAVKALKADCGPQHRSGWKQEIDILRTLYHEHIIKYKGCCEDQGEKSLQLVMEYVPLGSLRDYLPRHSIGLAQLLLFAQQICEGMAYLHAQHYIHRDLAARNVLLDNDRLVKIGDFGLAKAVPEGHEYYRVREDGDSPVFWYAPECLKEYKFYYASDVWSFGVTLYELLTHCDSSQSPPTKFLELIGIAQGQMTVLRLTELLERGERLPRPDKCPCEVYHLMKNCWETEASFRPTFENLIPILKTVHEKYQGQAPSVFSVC"},
  "source": "patent US8563545B2",
  "about": "“Compound useful for the treatment of degenerative and inflammatory diseases” (Galapagos NV, priority 2009, dated 2013)",
  "key": {"TYK2": {"target": "TYK2 (Homo sapiens (Human), UniProt P29597)", "experiment": "biochemical"}, "[1]": {"experiment": "Pharmacokinetic study in rodents", "assay_type": "in vivo", "conditions": "male, plasma; Sprague-Dawley rat, IV 1 mg/kg; read-out: AUC (0-24 h)", "experimental": "Sprague-Dawley rats (male, 5-6 weeks old) were obtained from Janvier (France). Rats were acclimatized for at least 7 days before treatment and were kept on a 12 hr light/dark cycle (0700-1900). Temperature was maintained at approximately 22° C., and food and water were provided ad libitum. Two days before administration of compounds 1 and 2, rats underwent surgery to place a catheter in the jugular vein under isoflurane anesthesia. After the surgery, rats were housed individually. Rats were deprived of food for at least 16 hours before oral dosing and 6 hours after. Water was provided ad libitum.\nCompounds were formulated in PEG200/physiological saline (60/40) for the intravenous route and in 0.5% methylcellulose (compounds 1 and 2) and 10% hydroxylpropyl-β-cyclodextrine pH3 (compound 11) for the oral route. Test compounds were orally dosed as a single esophageal gavage at 5 mg/kg under a dosing volume of 5 ml/kg and intravenously dosed as a bolus via the caudal vein at 1 mg/kg under a dosing volume of 5 mL/kg. Each group consisted of 3 rats. […]\nPlasma concentrations of each test compound were determined by an LC-MS/MS method in which the mass spectrometer was operated in positive electrospray mode.\nPharmacokinetic parameters were calculated using Winnonlin® (Pharsight®, United States)."}},
  "data": [
    {"smiles": "O=C(Nc1nc2cccc(-c3ccc(CN4CCS(=O)(=O)CC4)cc3)n2n1)C1CC1", "note": "[Compound 1, Cyclopropanecarboxylic acid {5-[4-(1,1-dioxo-1-thiomorpholin-4-ylmethyl)-phenyl]-[1,2,4]triazolo [1,5-a]pyridin-2-yl}-amide]", "values": [
      {"measurement": "Kd", "setting": "TYK2", "result": 0.376, "unit": "µM"},
      {"measurement": "AUC(0-t)", "setting": "[1]", "result": 0.739, "unit": "µg·h/mL"}
    ]}
  ]
}
